In PubChem BioAssay (EPA / NIEHS) one finds AC50 and outcome data, which are given here for 9 compounds.

Protein sequences, listed by entry. Tags and fused reporters are not part of them. Lines headed by an entry give the natural chain unless they say otherwise; changes in a name come on top.
UniProt P19785, whole entry, looked up: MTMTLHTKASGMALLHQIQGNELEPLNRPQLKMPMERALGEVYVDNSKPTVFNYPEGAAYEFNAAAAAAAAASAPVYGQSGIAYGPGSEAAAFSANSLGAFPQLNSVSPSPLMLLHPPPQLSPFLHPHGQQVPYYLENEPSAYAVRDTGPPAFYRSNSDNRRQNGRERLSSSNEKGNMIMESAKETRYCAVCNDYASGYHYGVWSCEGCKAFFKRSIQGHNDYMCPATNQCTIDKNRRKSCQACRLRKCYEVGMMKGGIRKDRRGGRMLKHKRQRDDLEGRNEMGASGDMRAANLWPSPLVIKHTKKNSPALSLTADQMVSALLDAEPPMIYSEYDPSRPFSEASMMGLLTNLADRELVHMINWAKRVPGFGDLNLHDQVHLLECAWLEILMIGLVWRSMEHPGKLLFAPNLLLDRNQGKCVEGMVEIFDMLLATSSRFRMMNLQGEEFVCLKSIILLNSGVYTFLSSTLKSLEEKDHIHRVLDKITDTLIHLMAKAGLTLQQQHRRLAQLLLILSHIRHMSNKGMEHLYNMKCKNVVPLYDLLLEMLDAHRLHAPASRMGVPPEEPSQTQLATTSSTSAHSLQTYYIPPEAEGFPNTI
UniProt P10275: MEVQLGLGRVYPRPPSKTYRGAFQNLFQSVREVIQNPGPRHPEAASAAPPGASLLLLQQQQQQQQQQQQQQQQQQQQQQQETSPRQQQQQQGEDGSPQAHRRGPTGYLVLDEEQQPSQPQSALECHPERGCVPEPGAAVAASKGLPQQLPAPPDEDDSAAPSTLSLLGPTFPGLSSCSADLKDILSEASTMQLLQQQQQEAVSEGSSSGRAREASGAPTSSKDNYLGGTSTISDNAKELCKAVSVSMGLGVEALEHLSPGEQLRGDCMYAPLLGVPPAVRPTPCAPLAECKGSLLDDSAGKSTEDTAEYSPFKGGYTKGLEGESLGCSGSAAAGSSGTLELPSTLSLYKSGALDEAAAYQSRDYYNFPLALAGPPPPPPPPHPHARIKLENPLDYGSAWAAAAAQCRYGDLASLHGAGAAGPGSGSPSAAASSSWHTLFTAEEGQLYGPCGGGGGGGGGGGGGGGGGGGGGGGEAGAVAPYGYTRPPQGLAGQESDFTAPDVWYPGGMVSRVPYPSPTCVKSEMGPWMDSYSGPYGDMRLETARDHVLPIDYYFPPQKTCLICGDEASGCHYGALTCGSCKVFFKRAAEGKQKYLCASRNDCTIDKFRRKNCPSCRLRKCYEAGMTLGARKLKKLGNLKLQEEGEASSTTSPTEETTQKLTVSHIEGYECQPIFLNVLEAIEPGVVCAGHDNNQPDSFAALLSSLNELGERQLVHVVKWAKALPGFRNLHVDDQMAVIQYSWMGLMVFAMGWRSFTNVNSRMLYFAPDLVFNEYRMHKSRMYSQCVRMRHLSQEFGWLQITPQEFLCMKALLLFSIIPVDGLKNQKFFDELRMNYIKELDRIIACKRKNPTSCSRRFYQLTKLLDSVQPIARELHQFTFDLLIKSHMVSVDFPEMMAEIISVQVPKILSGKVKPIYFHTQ
UniProt Q92731, whole entry, looked up: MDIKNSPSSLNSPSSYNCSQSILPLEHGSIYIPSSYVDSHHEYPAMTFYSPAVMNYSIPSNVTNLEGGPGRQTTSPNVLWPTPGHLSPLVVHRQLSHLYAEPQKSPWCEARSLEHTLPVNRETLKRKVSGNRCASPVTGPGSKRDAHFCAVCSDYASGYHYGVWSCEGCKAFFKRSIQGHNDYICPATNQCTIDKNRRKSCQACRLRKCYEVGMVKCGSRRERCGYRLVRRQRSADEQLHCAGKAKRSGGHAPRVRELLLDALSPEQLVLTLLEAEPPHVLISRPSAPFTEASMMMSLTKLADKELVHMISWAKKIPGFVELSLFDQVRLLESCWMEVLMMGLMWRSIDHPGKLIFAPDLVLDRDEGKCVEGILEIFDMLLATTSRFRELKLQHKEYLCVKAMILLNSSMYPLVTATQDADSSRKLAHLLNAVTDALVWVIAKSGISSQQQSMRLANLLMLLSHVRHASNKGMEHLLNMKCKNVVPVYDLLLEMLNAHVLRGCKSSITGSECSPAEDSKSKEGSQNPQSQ
UniProt P03372, whole entry, looked up: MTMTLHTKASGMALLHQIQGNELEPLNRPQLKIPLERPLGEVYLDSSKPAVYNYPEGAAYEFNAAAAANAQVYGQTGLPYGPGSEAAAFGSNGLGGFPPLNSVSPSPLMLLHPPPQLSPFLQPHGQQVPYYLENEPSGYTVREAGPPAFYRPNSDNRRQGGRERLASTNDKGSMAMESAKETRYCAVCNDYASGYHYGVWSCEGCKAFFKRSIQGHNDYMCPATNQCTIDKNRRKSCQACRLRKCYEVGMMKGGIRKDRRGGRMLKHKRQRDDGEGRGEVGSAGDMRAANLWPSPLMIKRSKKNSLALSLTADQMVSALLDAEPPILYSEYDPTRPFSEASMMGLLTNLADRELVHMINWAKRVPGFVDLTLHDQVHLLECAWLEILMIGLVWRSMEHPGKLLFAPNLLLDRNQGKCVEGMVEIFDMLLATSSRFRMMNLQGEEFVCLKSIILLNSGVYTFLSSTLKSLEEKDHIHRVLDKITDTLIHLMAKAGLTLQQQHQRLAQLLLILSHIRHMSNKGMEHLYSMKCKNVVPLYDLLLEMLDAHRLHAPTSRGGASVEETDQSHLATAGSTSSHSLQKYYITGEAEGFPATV
UniProt P37231: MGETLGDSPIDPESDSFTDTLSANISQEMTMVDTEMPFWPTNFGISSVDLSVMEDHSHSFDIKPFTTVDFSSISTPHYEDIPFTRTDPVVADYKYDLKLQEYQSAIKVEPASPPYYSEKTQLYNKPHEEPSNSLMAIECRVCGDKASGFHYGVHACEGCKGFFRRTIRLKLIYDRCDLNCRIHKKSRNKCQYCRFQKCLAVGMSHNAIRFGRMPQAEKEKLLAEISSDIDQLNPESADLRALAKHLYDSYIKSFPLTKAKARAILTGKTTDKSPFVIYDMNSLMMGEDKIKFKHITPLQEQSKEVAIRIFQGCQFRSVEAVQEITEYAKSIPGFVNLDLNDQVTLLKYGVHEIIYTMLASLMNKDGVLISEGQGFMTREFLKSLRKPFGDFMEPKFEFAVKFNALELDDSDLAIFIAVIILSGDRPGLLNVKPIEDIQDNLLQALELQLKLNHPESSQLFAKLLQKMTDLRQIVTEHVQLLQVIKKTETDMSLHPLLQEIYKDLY
UniProt Q01959, whole entry, looked up: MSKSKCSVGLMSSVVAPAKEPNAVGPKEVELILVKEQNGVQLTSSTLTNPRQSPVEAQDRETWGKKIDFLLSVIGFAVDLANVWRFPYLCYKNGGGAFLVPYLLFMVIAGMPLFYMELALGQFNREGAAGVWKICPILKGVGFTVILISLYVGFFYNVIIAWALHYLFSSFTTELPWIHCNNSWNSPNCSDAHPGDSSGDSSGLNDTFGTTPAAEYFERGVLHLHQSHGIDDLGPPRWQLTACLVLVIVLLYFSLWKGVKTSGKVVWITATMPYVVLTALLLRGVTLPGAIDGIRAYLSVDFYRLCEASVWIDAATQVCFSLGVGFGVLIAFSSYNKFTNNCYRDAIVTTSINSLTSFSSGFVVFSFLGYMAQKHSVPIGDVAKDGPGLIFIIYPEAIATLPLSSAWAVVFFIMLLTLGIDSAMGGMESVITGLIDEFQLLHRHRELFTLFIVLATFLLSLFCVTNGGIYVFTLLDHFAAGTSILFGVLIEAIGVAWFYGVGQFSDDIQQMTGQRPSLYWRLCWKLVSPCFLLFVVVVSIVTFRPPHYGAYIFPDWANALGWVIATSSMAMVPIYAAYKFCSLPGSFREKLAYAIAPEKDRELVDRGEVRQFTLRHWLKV
UniProt Q01827, whole entry, looked up: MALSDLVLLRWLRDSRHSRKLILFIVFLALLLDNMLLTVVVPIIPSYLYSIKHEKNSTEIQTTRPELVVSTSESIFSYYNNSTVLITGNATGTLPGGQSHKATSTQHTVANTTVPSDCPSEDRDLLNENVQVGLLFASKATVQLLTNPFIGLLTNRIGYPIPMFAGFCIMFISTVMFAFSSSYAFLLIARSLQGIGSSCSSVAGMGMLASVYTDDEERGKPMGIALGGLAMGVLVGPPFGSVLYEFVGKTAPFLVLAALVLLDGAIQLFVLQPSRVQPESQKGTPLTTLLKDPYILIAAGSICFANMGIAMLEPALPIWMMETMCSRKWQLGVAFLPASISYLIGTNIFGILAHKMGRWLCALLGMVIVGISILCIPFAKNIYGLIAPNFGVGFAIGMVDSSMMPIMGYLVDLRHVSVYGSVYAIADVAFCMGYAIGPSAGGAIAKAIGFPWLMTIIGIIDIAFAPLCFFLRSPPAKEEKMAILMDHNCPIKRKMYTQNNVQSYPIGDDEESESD
UniProt P23975, whole entry, looked up: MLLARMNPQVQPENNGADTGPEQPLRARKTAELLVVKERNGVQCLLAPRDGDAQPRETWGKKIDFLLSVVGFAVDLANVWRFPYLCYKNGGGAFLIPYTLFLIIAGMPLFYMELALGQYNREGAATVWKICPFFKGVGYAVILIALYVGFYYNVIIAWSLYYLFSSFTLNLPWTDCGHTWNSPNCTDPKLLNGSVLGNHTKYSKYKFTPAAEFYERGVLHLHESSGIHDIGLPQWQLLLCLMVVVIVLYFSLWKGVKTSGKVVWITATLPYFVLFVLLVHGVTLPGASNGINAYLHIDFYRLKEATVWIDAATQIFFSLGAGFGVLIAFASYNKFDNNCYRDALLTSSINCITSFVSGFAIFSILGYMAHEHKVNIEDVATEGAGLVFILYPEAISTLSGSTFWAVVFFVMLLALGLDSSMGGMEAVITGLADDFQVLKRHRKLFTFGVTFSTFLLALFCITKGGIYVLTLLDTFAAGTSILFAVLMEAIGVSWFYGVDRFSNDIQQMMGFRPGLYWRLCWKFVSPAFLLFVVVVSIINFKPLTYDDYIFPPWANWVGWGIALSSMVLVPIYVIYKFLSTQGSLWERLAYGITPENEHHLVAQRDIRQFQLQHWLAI
UniProt P15207: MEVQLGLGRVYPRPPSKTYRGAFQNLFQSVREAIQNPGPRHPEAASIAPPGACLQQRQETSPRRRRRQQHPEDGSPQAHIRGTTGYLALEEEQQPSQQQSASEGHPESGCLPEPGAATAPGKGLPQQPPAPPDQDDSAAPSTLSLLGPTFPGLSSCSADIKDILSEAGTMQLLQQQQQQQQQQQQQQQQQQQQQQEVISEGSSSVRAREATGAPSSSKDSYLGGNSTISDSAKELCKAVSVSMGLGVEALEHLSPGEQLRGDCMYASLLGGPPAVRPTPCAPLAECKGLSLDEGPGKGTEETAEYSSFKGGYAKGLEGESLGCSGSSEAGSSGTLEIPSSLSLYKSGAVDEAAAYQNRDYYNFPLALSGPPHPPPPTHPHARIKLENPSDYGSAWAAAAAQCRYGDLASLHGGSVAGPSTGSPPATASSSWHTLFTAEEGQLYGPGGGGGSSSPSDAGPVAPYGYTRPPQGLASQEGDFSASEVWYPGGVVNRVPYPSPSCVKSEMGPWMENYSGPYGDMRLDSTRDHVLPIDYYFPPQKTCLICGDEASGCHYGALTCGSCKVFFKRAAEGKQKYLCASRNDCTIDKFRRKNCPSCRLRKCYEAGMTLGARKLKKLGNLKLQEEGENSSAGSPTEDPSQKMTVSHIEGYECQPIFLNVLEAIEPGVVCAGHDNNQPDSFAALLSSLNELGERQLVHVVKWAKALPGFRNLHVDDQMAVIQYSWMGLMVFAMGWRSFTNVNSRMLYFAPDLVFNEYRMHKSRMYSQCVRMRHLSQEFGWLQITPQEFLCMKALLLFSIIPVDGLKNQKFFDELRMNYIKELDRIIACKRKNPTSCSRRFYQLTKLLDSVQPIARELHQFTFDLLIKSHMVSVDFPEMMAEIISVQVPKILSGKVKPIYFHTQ

Experiment [1] concerns the target mouse Estrogen Receptor alpha (Era), Esr1 (gene 13982) (UniProt P19785). Put plainly: NVS_NR_mERa: NovaScreen (NVS) Nuclear Receptor Binding Assay for mouse Estrogen Receptor alpha (Era) (AID 2283378).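 Further: hit means loss of bound radioligand signal relative to DMSO.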 The procedure, abridged: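 Cell-free radioligand binding with extracted mouse Era protein; competitive displacement of radiolabelled ligand, read by filter-based scintillation counting 18 hours after dosing. Loss of signal versus DMSO baseline taken as binding; single screening concentration 25 uM, actives followed in concentration series.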

The target of experiment [2] is Agonist Androgen Response Element (ARE), AR (gene 367) (UniProt P10275). Put plainly: OT_AR_ARELUC_AG_1440: Odyssey Thera (OT) 24-hour CHO-K1 Luciferase Assay for Agonist Androgen Response Element (ARE) (AID 2283379). The procedure, abridged: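 Seed CHO-K1 cells; dose compounds for 24 h; add D-luciferin plus ATP in PBS; read luminescence. Signal increase relative to vehicle defines agonist activity, with at least 3 replicate wells per sample.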

Experiment [3] concerns the target Estrogen receptor beta (Homo sapiens) (UniProt Q92731). The experiment is described as follows: OT_ER_ERbERb_1440: Odyssey Thera (OT) 24-hour HEK293T Protein-Complementation Assay for Estrogen Receptor-beta/-beta Homodimer (AID 2283380).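 Further: fluorescence gain from ER beta LBD homodimer complementation read by laser scanning cytometry; scored as signal increase over DMSO baseline for both agonists and antagonists.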 Put shortly:
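HEK293T cells stably expressing human ER-beta LBD (aa 310-547) PCA homodimer pair, dosed 24 h; formaldehyde-fixed, Draq5-stained. Readout: increase in nuclear (agonist) or nuclear plus cytoplasmic (antagonist) fluorescence intensity versus DMSO, gain-of-signal fitting.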

For experiment [4], the target named is Estrogen receptor (Homo sapiens) (UniProt P03372). The experiment is described as follows: OT_ERa_GFPERaERE_0480: Odyssey Thera (OT) 8-hour HeLa Transcription Induction Assay for Estrogen Receptor (AID 2283381; active means hit-call score of the fitted dose curve at least 0.9, where 1 is the maximum; inactive means score below 0.9). Put shortly:
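Cells (HeLa) receive compound; after 8 h, reporter fluorescence is imaged and quantified by high-content analysis. Gain-of-signal relative to DMSO gives the endpoint.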

Experiment [5] deals with guinea pig Dopamine Transporter (DAT), gene 100714898. Put plainly: NVS_TR_gDAT: NovaScreen (NVS) Transporter Assay for guinea pig Dopamine Transporter (DAT) (AID 2283369).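 Further: active compounds lower bound radioligand signal relative to DMSO.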 How it is done:
(§1) NVS_TR_gDAT is a biochemical, single-readout assay that uses extracted gene-proteins from Guinea pig striatal membranes in a tissue-based cell-free assay. Measurements were taken 2 hours after chemical dosing in a 48-well plate.NVS_TR_gDAT is one of one assay component(s) measured or calculated from the NVS_TR_gDAT assay. It is designed to make measurements of radioligand binding, a form of binding reporter, as detected with scintillation counting signals by Filter-based radiodetection technology.Data from the assay component NVS_TR_gDAT was analyzed into 1 assay endpoint. This assay endpoint, NVS_TR_gDAT, was analyzed in the positive analysis fitting direction relative to DMSO as the negative control and baseline of activity. […] Furthermore, this assay endpoint can be referred to as a primary readout, because the performed assay has only produced 1 assay endpoint. […]
(§2) Binding assays used specific radioligands (tritiated, iodinated) with non-radioactive competitive displacement ligands in agonist or antagonist protocols (as indicated) and various reference compounds and inhibitors to titrate specific binding to receptors and transporters. Most enzyme assays (CYPs, kinases, phosphatases, proteases, HDACs) used recombinant protein and specific substrates (fluorescence mostly, some colorimetric and radioactive) and inhibitors, followed by a biochemical separation of substrate and product. […]

For experiment [6], the target named is Peroxisome proliferator-activated receptor gamma (Homo sapiens) (UniProt P37231). The experiment is described as follows: NVS_NR_hPPARg: NovaScreen (NVS) Nuclear Receptor Binding Assay for human Peroxisome Proliferator-activated Receptor gamma (PPARg) (AID 2283370). Put shortly: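 Cell-free binding to extracted PPARg protein, read by fluorescence polarization 2 h after dosing; loss of signal relative to DMSO baseline marks displacement. Primary screen in duplicate at 25 uM, actives retested in concentration series.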

Experiment [7] concerns the target human Dopamine Transporter (DAT), SLC6A3 (gene 6531) (UniProt Q01959). The experiment is described as follows: NVS_TR_hDAT: NovaScreen (NVS) Transporter Assay for human Dopamine Transporter (DAT) (AID 2283374).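 Further: activity means loss of bound radioligand signal relative to DMSO.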 Put shortly:
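Cell-free radioligand binding to extracted human DAT protein, read 1 h after dosing by filter-based scintillation counting. Loss of specific binding scored against DMSO baseline; primary screen in duplicate at 25 uM, actives then run in concentration series.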

In experiment [8] the target is Norway rat Vesicular Monoamine Transporter (VMAT2), neurotransmitter transporter, Slc18a2 (gene 25549) (UniProt Q01827). The experiment is described as follows: NVS_TR_rVMAT2: NovaScreen (NVS) Transporter Assay for Norway rat Vesicular Monoamine Transporter (VMAT2), neurotransmitter transporter (AID 2283376).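 Further: actives lower the bound radioligand signal below the DMSO level.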 Put shortly: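 Rat forebrain tissue preparation used in a cell-free radioligand binding format; displacement read by filter-based scintillation counting 1 hour after dosing. Primary screen in duplicate at 25 uM, actives then run in concentration series; loss of signal versus DMSO baseline.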

Experiment [9] has as its target human Norepinephrine Transporter (NET), SLC6A2 (gene 6530) (UniProt P23975). The experiment is described as follows: NVS_TR_hNET: NovaScreen (NVS) Transporter Assay for human Norepinephrine Transporter (NET) (AID 2283377).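 Further: cell-free membrane protein extracted from CHO cells expressing human NET.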 How it is done:
as §1, with “NVS_TR_hNET” for “NVS_TR_gDAT”, “CHO” for “Guinea pig striatal membranes”, “a” for “a tissue-based”, “1 hour” for “2 hours”, “96-well plate.NVS_TR_hNET” for “48-well plate.NVS_TR_gDAT”, “NVS_TR_hNET,” for “NVS_TR_gDAT,”
as §2

Experiment [10] concerns the target rat Androgen Receptor (AR), Ar (gene 24208) (UniProt P15207). Put plainly: NVS_NR_rAR: NovaScreen (NVS) Nuclear Receptor Binding Assay for rat Androgen Receptor (AR) (AID 2283366). The procedure, abridged:
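Cell-free radioligand binding on extracts of prostate from testosterone-pretreated rats, read by filter-based scintillation counting 18 h after dosing. Loss of bound signal fitted positively versus DMSO; primary screen in duplicate at 25 uM, actives followed up in concentration series.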

Where “and” joins values, the source holds several entries; their conditions need not be identical. Equal values may be shown once. This is a selection; strong and weak results do not stand in their true shares. Records with an inconclusive call do not appear. Calls of active or inactive are those of the source. How the source made its calls, unless noted: active means hit-call score of the fitted dose curve at least 0.9, where 1 is the maximum; inconclusive means response in the unintended direction; inactive means score below 0.9.

What is called AC50 is the concentration at which the activity in the assay is half-maximal. As to `O=[P+](Oc1ccccc1)Oc1ccccc1`, the AC50 in experiment [1] is active: 25 µM. For the same compound, the result in [2] was inactive.
Take `CN(C(=O)Cc1cccc2occc12)[C@H]1CC[C@@]2(CCCO2)C[C@@H]1N1CCCC1`: the call in experiment [3] and in experiment [4] was inactive.
Consider `CC(C)OP(=S)(OC(C)C)SCCNS(=O)(=O)c1ccccc1`, for which the AC50 was active: 3.98 µM and active: 3 µM in experiment [5]; active: 25 µM and active: 602 nM in experiment [7]; active: 832 nM and active: 13 µM and active: 6.28 µM in experiment [8]. Moreover, in experiment [6], the result was inactive.
For the compound `O=C(Cl)OCCOC(=O)Cl`, the result in [9] was inactive.
For `ClP(Cl)c1ccccc1`, the AC50 in experiment [1] was active: 0.0841 µM. In addition, the call in [3] and in experiment [4] was inactive.
With `CC(C)CCCCCCCOP(OCCCCCCCC(C)C)Oc1ccccc1`, the compound was classed as inactive in experiment [3] and in [4].
For the compound `O=C(Cl)Oc1ccccc1`, the outcome in [9] was inactive.
Consider `Cc1cc([N+](=O)[O-])cc([N+](=O)[O-])c1O`, for which the compound was called inactive in experiment [10], in [6], in [8] and in experiment [2].
With `O=C1C2CC=CCC2C(=O)N1SC(Cl)(Cl)C(Cl)Cl` (stereo not given), the compound was classed as inactive in [2].
